Assay [1] addresses recombinant biotinylated TNFα (human) (UniProt P01375). In words: ELISA: conjugate coated on the plate, biotinylated human TNFα titrated (the concentration is that of TNFα), streptavidin-HRP detection, OD 450 nm. A general note: ELISA stands for enzyme-linked immunosorbent assay.
The target is the same in assay [2]. The assay can be described thus: ELISA: antibody coated on the plate, biotinylated human TNFα titrated (the concentration is that of TNFα), streptavidin-HRP detection, OD 450 nm.
In assay [3] the target is His-tagged human Fc gamma receptor I (FcγRI/CD64) (R&D, 1257-FC-050) (human) (UniProt P12314). The assay can be described thus: ELISA: antibody coated on the plate, His-tagged FcγRI titrated (the concentration is that of FcγRI), biotin anti-His antibody and streptavidin-HRP detection, OD 450 nm.
The target of assay [4] is IL-2 receptor (IL-2R) on primary pan T-cells from healthy donors (human) (UniProt P01589). The assay can be described thus: cell-based or functional assay.

In general, EC50 (read off the curve) refers to the midpoint of the concentration-response curve. Turning to “Composition C (biosimilar Adalimumab conjugated to Composition AA, DAR1, linker at K248 of the Fc) (from UniProt P0DOX5 2-449; P0DOX7 1-214; P60568 21-153) (other; other documents disagree on this pair)”, in assay [1], the EC50 (read off the curve) came out at 0.07 nM.
Turning to “biosimilar Adalimumab (antibody; other documents disagree on this pair)”, the EC50 (read off the curve) in assay [2] worked out at 0.08 nM; in assay [3], 0.05 nM.
In assay [4], “Composition C (biosimilar Adalimumab conjugated to Composition AA, DAR1, linker at K248 of the Fc) (from UniProt P0DOX5 2-449; P0DOX7 1-214; P60568 21-153)” yielded a CD4 con EC50 (nM), STAT5 phosphorylation of 346 nM; a CD8 EC50 (nM), STAT5 phosphorylation of 475 nM; a CD8 memory EC50 (nM), STAT5 phosphorylation of 534 nM; a CD8 naïve EC50 (nM), STAT5 phosphorylation of 508 nM. The substance further came in with a Treg EC50 (nM), STAT5 phosphorylation in assay [4] of 14.8 nM.
In assay [4], “Composition D (biosimilar Adalimumab conjugated to Composition AA, DAR2, linker at K248 of the Fc) (from UniProt P0DOX5 2-449; P0DOX7 1-214; P60568 21-153)” returned a CD4 con EC50 (nM), STAT5 phosphorylation of 906 nM; a CD8 EC50 (nM), STAT5 phosphorylation of 720 nM; a CD8 memory EC50 (nM), STAT5 phosphorylation of 1000 nM; a CD8 naïve EC50 (nM), STAT5 phosphorylation of 1000 nM. This substance yielded a Treg EC50 (nM), STAT5 phosphorylation in assay [4] of 0.66 nM.

The values are drawn from US20230183331A1.
